Experimental data: patent publication US10501644B2, “Reactive surface coating having chemical decontamination and biocidal properties” (dated 2019)

Experiment: Live agent testing of HD with hydrogen peroxide solutions
Settings: solution

For OO, the “hydrogen peroxide concentration needed to be effective alone against HD” value was 5%.
